Each structure is given as a SMILES string.

Protein sequences, listed by entry. Tags and fused reporters are not part of them.
UniProt P42866, whole entry: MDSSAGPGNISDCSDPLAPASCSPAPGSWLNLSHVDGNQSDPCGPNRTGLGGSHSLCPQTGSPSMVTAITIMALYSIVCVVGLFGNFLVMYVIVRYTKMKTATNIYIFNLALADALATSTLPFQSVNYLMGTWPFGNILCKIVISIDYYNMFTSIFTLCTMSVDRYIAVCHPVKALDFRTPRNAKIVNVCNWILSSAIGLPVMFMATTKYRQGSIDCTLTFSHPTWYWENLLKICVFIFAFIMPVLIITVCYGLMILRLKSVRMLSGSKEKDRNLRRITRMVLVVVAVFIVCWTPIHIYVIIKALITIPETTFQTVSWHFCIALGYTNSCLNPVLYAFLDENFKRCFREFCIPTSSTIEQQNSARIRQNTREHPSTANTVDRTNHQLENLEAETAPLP

The target in test [1] is T1, mMOR (Mus musculus, UniProt P42866). Briefly: BRET Nb33 recruitment at MOR, HEK 293T cells. Format: cell-based. Particulars: percentage of DAMGO.
Test [2] has as its target T1, mMOR. Briefly: BRET arrestin-3 recruitment at MOR with overexpressed GRK2, HEK 293T cells. Format: cell-based. Particulars: percentage of DAMGO. Background: In BRET a luciferase serves as donor, and the signal depends on an acceptor being close.

For `CCC1(CC)CC(OCCCN2CCN(c3cccc(C(F)(F)F)n3)CC2)(c2ccccn2)CCO1` (centres unmarked) [compound 102, 1-(3-((2,2-Diethyl-4-(pyridin-2-yl)tetrahydro-2H-pyran-4-yl)oxy)propyl)-4-(6-(trifluoromethyl)pyridin-2-yl)piperazine], the “MOR Nb33 recruitment response at 10μM” value in test [1] is 15.5 % at 10μM (n=3). Further, the “MOR arr3 recruitment (+ GRK2) response at 10μM” value in test [2] is 33.5% at 10μM (n=3).

Values taken from PMC11091828 (Journal of medicinal chemistry, 2023).
